Laboratory results from US12383623B2, “Liquid pharmaceutical compositions of polypeptide conjugates and methods of uses thereof” (BEIJING QL BIOPHARMACEUTICAL CO., LTD., priority 2022, dated 2025).

Assay: Pharmacokinetics in cynomolgus monkeys, intravenous
Type: in vivo
Conditions: i.v., 4 nmol/kg semaglutide, 5 nmol/kg Molecule 019

Substance: Semaglutide [reference compound]
- Cl: 1.56 mL/h/kg
- Vz: 0.09 L/kg
